This is an account of results in patent US20240018189A1 (Protagonist Therapeutics, Inc., priority 2020, published 2024).

Data set [1] in a line: Stability in simulated gastric fluid (SGF with pepsin). Format: in vitro ADME. The settings on record: 20 μM, SGF with pepsin pH 1.2, 37° C. The procedure:
Blank SGF was prepared by adding 2 g sodium chloride, 7 mL hydrochloric acid (37%) in a final volume of 1 L water, and adjusted pH to 1.2.
SGF was prepared by dissolving 320 mg Pepsin (Sigma®, P6887, from Porcine Stomach Mucosa) in 100 mL Blank SGF and stirred at room temperature for 30 minutes. The solution was filtered through 0.45 μm membrane and aliquot and stored at −20° C.
(§1) Experimental compounds of interest (at a concentration of 20 μM) were incubated with pre-warmed SGF at 37° C. Aliquots were taken at various time points up to 24 hours (e.g., 0, 0.25, 1, 3, 6 and 24 hr), and immediately quenched with 4 volumes of organic solvent (acetonitrile/methanol (1:1) and 0.1% formic acid, containing 1 μM internal standard). Quenched samples were stored at 4° C. until the end of the experiment and centrifuged at 4,000 rpm for 10 minutes. The supernatant were diluted 1:1 with deionized water and analyzed using LC-MS. Percentage remaining at each time point was calculated based on the peak area ratio (analyte over internal standard) relative to the initial level at time zero. Half-lives were calculated by fitting to a first-order exponential decay equation using GraphPad.

A further data set deals with T1, human ferroportin (Homo sapiens, UniProt Q9NP59).
T1 sequence (Q9NP59 1-571): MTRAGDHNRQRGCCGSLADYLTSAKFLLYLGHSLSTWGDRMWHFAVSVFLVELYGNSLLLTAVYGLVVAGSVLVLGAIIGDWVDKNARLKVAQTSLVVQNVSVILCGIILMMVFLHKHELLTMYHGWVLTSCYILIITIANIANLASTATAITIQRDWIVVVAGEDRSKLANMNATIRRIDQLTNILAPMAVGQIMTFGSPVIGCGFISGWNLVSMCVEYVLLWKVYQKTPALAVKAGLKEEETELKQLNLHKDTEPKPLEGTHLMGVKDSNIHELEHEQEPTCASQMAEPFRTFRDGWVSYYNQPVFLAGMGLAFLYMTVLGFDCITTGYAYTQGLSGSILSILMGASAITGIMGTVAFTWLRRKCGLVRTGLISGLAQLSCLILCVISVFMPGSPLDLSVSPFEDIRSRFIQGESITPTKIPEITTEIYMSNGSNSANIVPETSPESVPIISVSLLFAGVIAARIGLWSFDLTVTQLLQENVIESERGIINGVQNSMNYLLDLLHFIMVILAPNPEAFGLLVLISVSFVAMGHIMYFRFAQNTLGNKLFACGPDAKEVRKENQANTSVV
Kind of data set: FPN activity assay: internalization/degradation of ferroportin-GFP in stably transfected HEK293 cells. The settings on record: read-out: FPN EC50; Table 3A; HEK293 ferroportin-GFP cells, at least 18 hours incubation.

Data set [2] is described as follows: Stability in simulated intestinal fluid (FaSSIF with pancreatin). In kind it is in vitro ADME. The settings on record: 20 μM, FaSSIF 1% pancreatin, 37° C. The procedure: FaSSIF was prepared by dissolving 1.2 g porcine pancreatin (Chem-supply, PL378) in 100 mL Blank FaSSIF and stirred at room temperature for 30 minutes. The solution was filtered through 0.45 μm membrane and aliquot and stored at −20° C.
as §1, with “(20” for “(at a concentration of 20”, “FaSSIF (1% pancreatin in final incubation mixture)” for “SGF”, “(e.g.” for “(e.g.,”
Compounds of interest (at concentration of 20 μM) were mixed with pre-warmed FaSSIF (1% pancreatin in final working solution). The solution mixture was aliquoted and incubated at 37° C. The number of aliquots required was equivalent to the number of time points (e.g. 0, 0.25, 1, 3, 6 and 24 hr). At each time point, one aliquot was taken and immediately quenched with 4 volumes of organic solvent (acetonitrile/methanol (1:1) and 0.10% formic acid, containing 1 μM internal standard). The remaining steps were the same as the generic experimental.

“Isovaleric acid-D-T-H-[Dpa]-P-C-I-(D)Lys-bhPhe-[Lys(Ahx-Palm)]-R-C-NH2 [Compound 2]”: in data set [1], the “SGF Half life” value is reported as 144 min. The DC50 at human ferroportin was 11.8 nM. For the same substance, the “SIF Half life” value in data set [2] was 78 min.
